The assay deals with T1, fluorescent amyloid beta (1-40) peptide (human, fluorescein label; attachment site of the purchased peptide (Biosource) not stated in the examples; one embodiment describes N-terminal 5-carboxy-fluorescein).
T1 construct: Bought from Biosource; It may be preincubated 24-48 h at 37 C to form a pleated sheet (aggregated) structure before the assay; also called fluorescienated amyloid beta 1-40; fluoresceinated amyloid beta (1-40)
Put plainly: fluorescence polarization, sRAGE at 40 nM.

B1: recombinant human sRAGE (receptor)
chain: AQNITARIGEPLVLKCKGAPKKPPQRLEWKLNTGRTEAWKVLSPQGGGPWDSVARVLPNGSLFLPAVGIQDEGIFRCQAMNRNGKETKSNYRVRVYQIPGKPEIVDSASELTAGVPNKVGTCVSEGSYPAGTLSWHLDGKPLVPNEKGVSVKEQTRRHPETGLFTLQSELMVTPARGGDPRPTFSCSFSPGLPRHRALRTAPIQPRVWEPVPLEEVQLVVEPEGGAVAPGGTVTLTCEVPAQPSPQIHWMKDGVPLPLPPSPVLILPEIGPQDQGTYSCVATHSSHGPQESRAVSISIIEPGEEGPTAGSVGGSGLG
notes: also called soluble RAGE
Take B1: the binding result was “binds”.

(Values after US20070154954A1 (TRANSTECH PHARMA, published 2007).)
